Ki data for one substance are collected here from patent US9738628B2, “Substituted 1H-indazol-1-OL analogs as inhibitors of beta catenin/Tcf protein-protein interactions” (University of Utah Research Foundation, priority 2012, dated 2017).

Chains of the proteins cited; added tags and fusions are not shown. Residues count along the entry.
UniProt P35222, 138-686: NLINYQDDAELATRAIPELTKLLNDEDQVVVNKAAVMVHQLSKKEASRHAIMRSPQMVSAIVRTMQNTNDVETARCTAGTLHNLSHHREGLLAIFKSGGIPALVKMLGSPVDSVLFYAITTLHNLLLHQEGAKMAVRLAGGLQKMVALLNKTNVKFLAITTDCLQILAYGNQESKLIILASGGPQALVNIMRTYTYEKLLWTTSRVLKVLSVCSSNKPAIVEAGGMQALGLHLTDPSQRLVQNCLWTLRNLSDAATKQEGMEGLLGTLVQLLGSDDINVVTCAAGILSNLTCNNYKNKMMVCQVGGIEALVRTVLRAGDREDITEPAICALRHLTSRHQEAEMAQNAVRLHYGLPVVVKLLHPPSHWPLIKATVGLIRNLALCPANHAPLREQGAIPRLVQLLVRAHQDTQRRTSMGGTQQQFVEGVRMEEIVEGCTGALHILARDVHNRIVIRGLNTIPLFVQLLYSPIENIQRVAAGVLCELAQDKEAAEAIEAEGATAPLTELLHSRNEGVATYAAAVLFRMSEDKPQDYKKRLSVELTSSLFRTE

The target in this assay is β-catenin/Tcf4 (Homo sapiens (Human), UniProt P35222). Kind of assay: Fluorescence polarization (FP) competitive inhibition assay, β-catenin/Tcf4. The assay is classed as binding. The protocol:
Experiments were performed in 96-well Microfluor 2 black plates (Waltham, Mass.), and the samples were read by a Synergy 2 plate reader (Biotek, Winooski, Vt.). […] The final reaction volume is 100 μL.

On to “5-(2-(2H-tetrazol-5-yl)ethyl)-1H-indazole [Compound 16]”, for which the Ki was 180 ± 2.91 µM.
